This is an account of results in ChEMBL document CHEMBL1140106, “Blocking estrogen signaling after the hormone: pyrimidine-core inhibitors of estrogen receptor-coactivator binding” (J Med Chem, 2008).

By UniProt entry, the sequences of proteins in these tests, tags left out.
UniProt Q92731, whole entry: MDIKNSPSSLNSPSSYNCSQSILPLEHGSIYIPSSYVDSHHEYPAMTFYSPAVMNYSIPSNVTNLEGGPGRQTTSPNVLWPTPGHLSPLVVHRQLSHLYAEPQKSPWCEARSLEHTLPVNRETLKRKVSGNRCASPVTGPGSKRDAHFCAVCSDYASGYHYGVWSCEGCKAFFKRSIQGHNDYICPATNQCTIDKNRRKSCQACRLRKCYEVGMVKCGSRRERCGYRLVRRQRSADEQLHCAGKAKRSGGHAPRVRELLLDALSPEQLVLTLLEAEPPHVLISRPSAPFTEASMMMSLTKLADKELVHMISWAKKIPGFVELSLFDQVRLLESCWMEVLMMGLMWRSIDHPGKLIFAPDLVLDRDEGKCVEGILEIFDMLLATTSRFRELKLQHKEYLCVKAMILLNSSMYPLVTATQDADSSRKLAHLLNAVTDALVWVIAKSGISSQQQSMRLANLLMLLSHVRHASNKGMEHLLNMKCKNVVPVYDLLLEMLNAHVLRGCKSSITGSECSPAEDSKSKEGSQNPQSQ
UniProt P03372, whole entry: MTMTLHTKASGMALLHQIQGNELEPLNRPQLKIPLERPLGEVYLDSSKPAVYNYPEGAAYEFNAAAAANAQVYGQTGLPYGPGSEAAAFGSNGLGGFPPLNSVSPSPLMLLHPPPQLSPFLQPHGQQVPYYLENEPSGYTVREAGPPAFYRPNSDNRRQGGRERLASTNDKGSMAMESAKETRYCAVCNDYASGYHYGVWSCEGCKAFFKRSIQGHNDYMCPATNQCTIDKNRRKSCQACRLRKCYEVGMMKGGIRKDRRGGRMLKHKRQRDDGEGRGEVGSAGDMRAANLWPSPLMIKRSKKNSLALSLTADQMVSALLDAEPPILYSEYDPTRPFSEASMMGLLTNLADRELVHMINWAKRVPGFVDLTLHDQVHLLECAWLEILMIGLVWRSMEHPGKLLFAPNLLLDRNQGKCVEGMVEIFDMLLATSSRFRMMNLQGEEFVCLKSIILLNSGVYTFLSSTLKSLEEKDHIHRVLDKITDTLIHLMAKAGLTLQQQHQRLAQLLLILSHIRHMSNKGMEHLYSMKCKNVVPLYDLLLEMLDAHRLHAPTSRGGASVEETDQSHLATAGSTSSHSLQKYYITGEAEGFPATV

One assay addresses Estrogen receptor beta (Homo sapiens, UniProt Q92731). Description: Binding affinity to ERbeta assessed as inhibition of fluorescein-labeled nuclear receptor domain of steroid receptor coactivator 3 by TR-FRET assay.
Assay [1] deals with T1, Estrogen receptor (Homo sapiens, UniProt P03372). The assay is described as follows: Binding affinity to ERalpha assessed as inhibition of fluorescein-labeled nuclear receptor domain of steroid receptor coactivator 3 by TR-FRET assay. A digest of the protocol: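 Fluorescein-SRC-3-NRD (50 nM) was then added for 1 h at room temperature in the dark. Buffer: 20 mM Tris pH 7.5, 0.01% NP40, 50 mM NaCl. SRC-1 Box II peptide served as positive control.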

The target of assay [2] is T1, Estrogen receptor. Description: Antagonist activity at ERalpha in human HEC1 cells assessed as inhibition of estrogen-induced transcriptional activity after 24 hrs by reporter gene assay. The class given is functional, cell-based, HEC-1. A digest of the protocol:
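HEC-1 cells, which lack endogenous ER, were lipofectin-transfected with full-length ERα vector, 2ERE-luciferase reporter and pCMV β-gal as internal control. After 6 h the medium was changed to 5% charcoal-dextran-treated calf serum with ligands.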

The target in assay [3] is T1, Estrogen receptor. The assay is described as follows: Binding affinity to ERalpha assessed as inhibition of steroid receptor coactivator 2 interaction by fluorescence polarization assay.

In the case of `CCCCc1cc(NCCC)nc(NCCC)n1`, the inhibition constant (Ki) on Estrogen receptor beta was over 1 mM; at Estrogen receptor [1], 16 µM; at Estrogen receptor [3], 32 µM. In addition, at Estrogen receptor [2], the IC50 was found to be 13 µM.

For `CCc1cc(NCC(C)C)nc(NCC(C)C)n1`, the Ki on Estrogen receptor [1] stood at 10 µM. Further, the IC50 on Estrogen receptor [2] came out at 7.3 µM.

As for `CC(C)CNc1nc(CCc2ccccc2)cc(N(C)CC(C)C)n1`, at Estrogen receptor [1], the Ki is 8.4 µM. For the same compound, the IC50 at Estrogen receptor [2] was found to be 5.5 µM.

Turning to `CC(C)CNc1cc(/C=C/c2ccccc2)nc(NCC(C)C)n1`, the Ki on Estrogen receptor [1] was 7.5 µM. At Estrogen receptor [2], the IC50 worked out at 6.9 µM.

For the compound `CC(C)CCc1cc(NCc2cccc3ccccc23)nc(NCC(C)C)n1`, the Ki on Estrogen receptor [1] stood at 2.4 µM. Further, the IC50 on Estrogen receptor [2] came out at 6.7 µM.

As for `CC(C)CNc1cc(CCc2ccccc2)nc(NCc2ccccc2)n1`, on Estrogen receptor [1], the Ki was found to be 7.6 µM. In addition, the IC50 on Estrogen receptor [2] was 4.5 µM.

Take `CC(C)CNc1nc(CCc2cccc3ccccc23)cc(N(C)CC(C)C)n1`: the Ki on Estrogen receptor [1] was 2.4 µM. For the same compound, the IC50 on Estrogen receptor [2] is 4.4 µM.
